Reference: PubChem BioAssay AID688 (PCMD, 2007)
Only a part is listed here, and it is no random draw. Activity calls are given as the source filed them.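 Rule for the calls: active = mutant luminescence inhibited past about 50% while wild type luminescence and mutant growth stay under set limits (limit read from the data); inconclusive = mutant versus wild type luminescence inhibition gap past a set limit; inactive = the rest.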

Test: GCN4-lacZ reporter reduction in eIF2B-epsilon mutant yeast, primary screen, S. cerevisiae, eIF2B-epsilon R284H, Beta-Glo luminescence (AID 688)
Conditions: stronger effect = higher value, screened at 25 µM (by protocol)
In the case of `N#CC1(Nc2ccccc2)CCN(CCc2ccccc2)CC1`, the inhibition is reported as inactive: -39%.
In the case of `N/C(=N\O)c1c(N)no[n+]1[O-]`, the inhibition is reported as inactive: 22.5%.
For `c1ccc(CN2CCC(Nc3ccccc3)CC2)cc1`, the inhibition was inactive: 10.9%.
In the case of `CCC(CO)(C(=O)OC1CN2CCC1CC2)c1ccccc1` (centres undefined), the inhibition is reported as inactive: 13.1%.
